Consider 2 substances from patent US12442827B2, “Detection and treatment of conditions related to luteinizing hormone/follicle-stimulating hormone (LH/FSH) levels” (UNIVERSITY OF NORTH TEXAS HEALTH SCIENCE CENTER AT FORT …, priority 2019, dated 2025).

The subject of this assay is GnRH-Receptor. The assay is described as follows: GnRH-Receptor expression after FSH and LH stimulation of HCFs and HKCs (Western blot). Format: cell-based, human. As to conditions: 48 hours, FSH 2.5 and 10 miu/ml, LH 5 and 35 miu/ml, in a dose dependent manner, FIGS. 10A and 10B. The procedure:
In FIGS. 10A and 10B HCFs and HKCs were seeded in 12-well plates at 5×10^5 cells/well in regular media. 24 hours later media was replaced for treatment media (regular media supplemented with the treatment). The treatments consisted of: FSH: 2.5 and 10 miu/ml; LH: 5 and 35 miu/ml. After 48 hours treatment finished and all the wells were wash with PBS and proteins were extracted using 1 ml of RIPA buffer 1×. Bradford assay (Thermo scientific, IL, USA) was carried out to determine the protein concentration and normalize the samples. For western blot analysis samples were mixed with loading buffer and equal amounts of protein were loaded (25 μg per lane) on a 4-20% Tris-Glycine gel (Novex, Life technologies, Carlsbad, CA) and electrophoresed at 135-140V for 1.5 hour. Each sample was run single. Thereafter, the gel was transferred on to a nitrocellulose membrane (Novex, Nitrocellulose membrane, Life Technologies, Carlsbad, CA), at 100V for 1 hour on ice. Finally, the membranes were blocked in milk (5% milk in TBST; Thermo scientific, IL, USA) for 1 hour and incubated overnight in the rocker at 4° C. with the primary antibody at 1:250 dilution. The primary antibodies used for this experiment were rabbit polyclonal to LHR (ab125214, Abcam, Cambridge, MA), and Rabbit polyclonal GNRHR (ab183079, Abcam, Cambridge, MA). […]
On the technique in general: Immunoblotting shows a protein as a band on a membrane.

Regarding “FSH: gonadotropin, glycoprotein polypeptide hormone synthesized and secreted by the gonadotropic cells of the anterior pituitary gland”, the GnRH-Receptor modulation result is reported as “modulated”.

With “LH: hormone produced by gonadotropic cells in the anterior pituitary gland”, the GnRH-Receptor modulation result was “modulated”.
